Results taken from PubChem BioAssay AID646 (Vanderbilt High Throughput Screening Facility, 2007).
Only a part is listed here, and it is no random draw. Calls of active or inactive are those of the source. No stated cut-off is given here; in the data, active means luminescence above about 3900; inactive means the rest.

Chains of the proteins cited; added tags and fusions are not shown.
UniProt P21728, whole entry: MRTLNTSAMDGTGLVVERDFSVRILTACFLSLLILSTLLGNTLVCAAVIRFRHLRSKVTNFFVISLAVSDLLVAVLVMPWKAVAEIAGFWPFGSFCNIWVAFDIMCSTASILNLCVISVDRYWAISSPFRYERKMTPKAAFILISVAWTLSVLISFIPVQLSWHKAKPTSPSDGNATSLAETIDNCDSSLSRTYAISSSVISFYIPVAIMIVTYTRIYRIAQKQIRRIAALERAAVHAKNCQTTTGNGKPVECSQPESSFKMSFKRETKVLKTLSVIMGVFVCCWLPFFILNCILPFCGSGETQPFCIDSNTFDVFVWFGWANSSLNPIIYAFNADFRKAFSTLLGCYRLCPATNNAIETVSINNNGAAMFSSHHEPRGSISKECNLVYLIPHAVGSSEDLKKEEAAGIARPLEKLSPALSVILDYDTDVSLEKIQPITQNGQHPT

These molecules were tested against D(1A) dopamine receptor (Homo sapiens) (UniProt P21728) (assay: D1 receptor agonism without dopamine, confirmation, mechanism study for D1 allosteric modulator project, cell-based, HEK293 D1, CRE-luciferase, secondary assay 1 (AID 646)). Conditions: no dopamine, at 10 µM, stronger effect = higher value.

Row | Structure (SMILES) | luminescence
1 | CCOc1ncccc1C(=O)NCC1(N2CCOCC2)CCCCC1 | inactive: 1690
